Common to all, as to settings: Concentration 20 uM; ASSAY_TEST Inhibition of Bacterial Growth; detection method Absorption (OD600); MEDIA CAMHB; plate type 384well; NBS; CORNING #3640; time 18 hr
Assay [1] relates to Staphylococcus aureus.
In assay [2] the test system is Escherichia coli.
The subject of assay [3] is Acinetobacter baumannii.

For part of these data: What follows is the remainder of the data, with few or none of the strong results. Potency and affinity values are given separately. The entries are a selection whose mix differs from that of the whole data set.

Usually Inhibition stands for the percentage by which the read-out fell short of the control. Read a low Inhibition as a weak effect. For the compound `COc1ccc(C[C@H](C)NC[C@@H](O)c2ccc(O)c(NC=O)c2)cc1.O.O.O=C(O)/C=C/C(=O)O`, the Inhibition was found to be 7.68% in assay [1], 5.98% in assay [2] and 20.06% in assay [3].

Values taken from ChEMBL document CHEMBL4513141, “CO-ADD screening of NIH (USA) - Clinical Collection” (2021).
